Data published in patent US20060094649A1, “Hla-a1,-a2,-a3,-a24,-b7, and-b44 tumor associated antigen peptides and compositions” (priority 2002, published 2006).

What was measured:
HLA-B*4001 = HLA-B*4001 (Homo sapiens, UniProt P01889, A65T/A93T/A95T/D138N/D98Y/E176V/E69K/N87E/Q56L/Q94N/R180L/S121R/S35A/S48T/T167S/V36M/W171L/Y33H/Y91S); test: Class I peptide-binding assay, HLA-B*4001 (B44 supertype); settings: read-out: B*4001
[1] = test system: HLA-B44 supertype molecules; test: HLA-B44 supertype cross-binding; parameters: species or system human; settings: number of the six B44 supertype alleles bound
HLA-B*4002 = HLA-B*4002 (Homo sapiens, UniProt P01889, A65T/A93T/A95T/D138N/D201E/D98Y/E176V/E204Q/E69K/K202T/N87E/Q56L/Q94N/R180L/S48T/Y33H/Y91S); test: Class I peptide-binding assay, HLA-B*4002 (B44 supertype); settings: read-out: B*4002
HLA-B*4501 = HLA-B*4501 (Homo sapiens, UniProt P01889, A329T/A65T/A93T/A95T/C349S/D138N/D201E/D98Y/E176V/E187L/E204Q/E69K/H137Y/K202T/L119W/N87E/Q56L/Q94N/R155S/R180D/S121R/S35A/S48T/V127L/V306I/V36M/W191S/Y140L/Y33H/Y91S); test: Class I peptide-binding assay, HLA-B*4501 (B44 supertype); settings: p53-derived B44 peptides, Table 28; dash cells; read-out: B*4501
[2] = test system: HLA-A3 supertype molecules; test: HLA-A3 supertype cross-binding (A*0301, A*1101, A*3101, A*3301, A*6801); settings: of 5 alleles; affinity ≦500 nM
[3] = HER2/neu-derived B44 peptides, Table 27, binding to purified HLA-B*4001
[4] = HER2/neu-derived B44 peptides, Table 27, binding to purified HLA-B*4002
[5] = p53-derived B44 peptides, Table 28, dash cells
[6] = p53-derived B44 peptides, Table 28
[7] = MAGE2-derived B44 peptides, Table 29, dash cells

## CC(C)[C@H](NC(=O)[C@H](CCCNC(=N)N)NC(=O)[C@H](Cc1ccccc1)NC(=O)[C@H](CCC(N)=O)NC(=O)CNC(=O)[C@@H](NC(=O)[C@H](C)NC(=O)[C@H](CCC(=O)O)NC(=O)[C@@H](N)CCC(=O)O)[C@@H](C)O)C(=O)N[C@@H](Cc1ccc(O)cc1)C(=O)O
HLA-B*4001; CEA-derived B44 peptides
  IC50: > 10 µM
[1]
  Degeneracy: 2

## CC[C@H](C)[C@H](NC(=O)[C@H](CCCCN)NC(=O)[C@H](CCC(=O)O)NC(=O)[C@@H](N)CCC(=O)O)C(=O)N[C@@H](Cc1c[nH]c2ccccc12)C(=O)N[C@@H](CCC(=O)O)C(=O)N[C@@H](CCC(=O)O)C(=O)N[C@@H](CC(C)C)C(=O)N[C@@H](CO)C(=O)N[C@H](C(=O)O)C(C)C
HLA-B*4001; MAGE3-derived B44 peptides, binding to purified HLA-B*4001
  IC50: 8.95 µM
[1]
  Degeneracy: 5

## C[C@H](NC(=O)[C@H](CCC(=O)O)NC(=O)[C@H](CCC(=O)O)NC(=O)[C@@H](N)CC(N)=O)C(=O)N[C@H](C(=O)NCC(=O)N[C@@H](CCC(N)=O)C(=O)N[C@@H](Cc1ccccc1)C(=O)O)[C@@H](C)O
HLA-B*4001; CEA-derived B44 peptides
  IC50: > 10 µM
HLA-B*4002; CEA-derived B44 peptides
  IC50: > 10 µM
[1]
  Degeneracy: 0

## CC(C)[C@H](NC(=O)[C@H](CCCNC(=N)N)NC(=O)[C@H](Cc1ccccc1)NC(=O)[C@H](CCC(N)=O)NC(=O)CNC(=O)[C@@H](NC(=O)[C@H](C)NC(=O)[C@H](CCC(=O)O)NC(=O)[C@H](CCC(=O)O)NC(=O)[C@@H](N)CC(N)=O)[C@@H](C)O)C(=O)O
HLA-B*4001; CEA-derived B44 peptides
  IC50: > 10 µM
HLA-B*4002; CEA-derived B44 peptides
  IC50: > 10 µM
[1]
  Degeneracy: 2

## CC(C)C[C@H](NC(=O)[C@H](Cc1ccc(O)cc1)NC(=O)[C@@H](NC(=O)[C@H](C)NC(=O)[C@H](CC(=O)O)NC(=O)[C@H](CCC(N)=O)NC(=O)[C@@H](NC(=O)[C@H](CCC(=O)O)NC(=O)[C@@H]1CCCN1)[C@@H](C)O)[C@@H](C)O)C(=O)N[C@@H](Cc1c[nH]c2ccccc12)C(=O)N[C@@H](Cc1c[nH]c2ccccc12)C(=O)O
HLA-B*4001; CEA-derived B44 peptides
  IC50: > 10 µM
HLA-B*4002; CEA-derived B44 peptides
  IC50: > 10 µM
[1]
  Degeneracy: 0

## CC[C@H](C)[C@H](NC(=O)[C@H](CCC(=O)O)NC(=O)[C@@H](N)CCCCN)C(=O)N[C@@H](CC(C)C)C(=O)N[C@@H](CC(=O)O)C(=O)N[C@@H](CCC(=O)O)C(=O)N[C@@H](C)C(=O)N[C@@H](Cc1ccc(O)cc1)C(=O)N[C@H](C(=O)N[C@@H](CCSC)C(=O)O)C(C)C [compound 436]
HLA-B*4001; [3]
  IC50: 0.0055 µM
HLA-B*4002; [4]
  IC50: 0.004 µM
[1]
  Degeneracy: 6

## CC(C)C[C@H](NC(=O)[C@H](Cc1ccc(O)cc1)NC(=O)[C@H](CCC(=O)O)NC(=O)[C@H](CCC(=O)O)NC(=O)[C@H](C)N)C(=O)N[C@H](C(=O)N1CCC[C@H]1C(=O)N[C@@H](CCC(N)=O)C(=O)N[C@@H](CCC(N)=O)C(=O)NCC(=O)N[C@@H](Cc1ccccc1)C(=O)N[C@@H](Cc1ccccc1)C(=O)O)C(C)C [compound 467]
HLA-B*4001; [3]
  IC50: 0.262 µM

## CC[C@H](C)[C@H](NC(=O)[C@H](Cc1ccc(O)cc1)NC(=O)[C@H](CC(C)C)NC(=O)[C@H](Cc1ccc(O)cc1)NC(=O)CNC(=O)[C@@H](NC(=O)[C@@H](NC(=O)[C@H](CCC(=O)O)NC(=O)[C@@H](N)CCC(=O)O)[C@@H](C)CC)[C@@H](C)O)C(=O)O [compound 484]
HLA-B*4001; [3]
  IC50: 0.906 µM
HLA-B*4002; [4]
  IC50: 0.916 µM
[1]
  Degeneracy: 4

## CC(C)C[C@H](NC(=O)[C@H](Cc1ccc(O)cc1)NC(=O)[C@H](CCC(=O)O)NC(=O)[C@H](CCC(=O)O)NC(=O)[C@H](C)N)C(=O)N[C@H](C(=O)N1CCC[C@H]1C(=O)N[C@@H](CCC(N)=O)C(=O)N[C@@H](CCC(N)=O)C(=O)NCC(=O)N[C@@H](Cc1ccccc1)C(=O)O)C(C)C [compound 494]
HLA-B*4001; [3]
  IC50: 0.584 µM
HLA-B*4002; [4]
  IC50: 1.83 µM
[1]
  Degeneracy: 4

## CC(C)C[C@H](NC(=O)[C@H](Cc1ccc(O)cc1)NC(=O)[C@H](CCC(=O)O)NC(=O)[C@@H](N)CCC(=O)O)C(=O)N[C@H](C(=O)N1CCC[C@H]1C(=O)N[C@@H](CCC(N)=O)C(=O)N[C@@H](CCC(N)=O)C(=O)NCC(=O)N[C@@H](Cc1ccccc1)C(=O)N[C@@H](Cc1ccccc1)C(=O)O)C(C)C [compound 497]
HLA-B*4001; [3]
  IC50: 4.29 µM
[1]
  Degeneracy: 4

## N=C(N)NCCC[C@H](NC(=O)[C@H](CCC(=O)O)NC(=O)[C@@H](N)Cc1c[nH]cn1)C(=O)N[C@@H](CS)C(=O)N[C@@H](CO)C(=O)N[C@@H](CC(=O)O)C(=O)N[C@@H](CO)C(=O)N[C@@H](CC(=O)O)C(=O)NCC(=O)O [compound 614]
HLA-B*4002; [5]
  IC50: > 10 µM

## CC(C)C[C@H](NC(=O)[C@H](CC(C)C)NC(=O)[C@H](CC(N)=O)NC(=O)CNC(=O)[C@H](CO)NC(=O)[C@H](CO)NC(=O)[C@H](CC(=O)O)NC(=O)[C@H](CCC(=O)O)NC(=O)[C@@H](N)CC(C)C)C(=O)O [compound 617]
HLA-B*4501
  IC50: > 10 µM

## CC(C)C[C@H](NC(=O)[C@H](Cc1ccc(O)cc1)NC(=O)[C@H](CCC(=O)O)NC(=O)[C@@H](N)C(C)C)C(=O)N[C@@H](CC(=O)O)C(=O)N[C@@H](CC(=O)O)C(=O)N[C@@H](CCCNC(=N)N)C(=O)N[C@@H](CC(N)=O)C(=O)N[C@H](C(=O)O)[C@@H](C)O [compound 628]
HLA-B*4001; [5]
  IC50: > 10 µM
HLA-B*4002; [5]
  IC50: > 10 µM

## CC(C)[C@H](NC(=O)[C@H](CO)NC(=O)[C@@H]1CCCN1C(=O)[C@H](CC(=O)O)NC(=O)[C@H](CO)NC(=O)[C@H](CCC(N)=O)NC(=O)[C@@H]1CCCN1C(=O)[C@H](CCC(=O)O)NC(=O)[C@@H](N)CCC(=O)O)C(=O)O [compound 637]
HLA-B*4001; [5]
  IC50: > 10 µM
HLA-B*4002; [5]
  IC50: > 10 µM

## C[C@H](NC(=O)[C@H](CCC(=O)O)NC(=O)[C@H](CC(=O)O)NC(=O)[C@@H]1CCCN1C(=O)CNC(=O)[C@@H]1CCCN1C(=O)[C@H](CC(=O)O)NC(=O)[C@H](CCC(=O)O)NC(=O)[C@@H](N)[C@@H](C)O)C(=O)O [compound 639]
HLA-B*4002; [5]
  IC50: > 10 µM
[1]; [6]
  Degeneracy: 0

## CC(C)C[C@H](NC(=O)[C@H](CC(N)=O)NC(=O)[C@H](CCC(=O)O)NC(=O)[C@H](CCC(=O)O)NC(=O)[C@@H](N)CCC(=O)O)C(=O)N[C@@H](CCCNC(=N)N)C(=O)N[C@@H](CCCCN)C(=O)N[C@@H](CCCCN)C(=O)NCC(=O)O [compound 644]
HLA-B*4002; [5]
  IC50: > 10 µM
[1]; [6]
  Degeneracy: 0

## CSCC[C@H](NC(=O)[C@H](CO)NC(=O)[C@H](CC(C)C)NC(=O)[C@H](CCC(=O)O)NC(=O)[C@@H](N)CCC(=O)O)C(=O)N[C@@H](CC(C)C)C(=O)N[C@@H](CCC(=O)O)C(=O)N[C@H](C(=O)N[C@@H](Cc1ccccc1)C(=O)N[C@@H](CCC(=O)O)C(=O)NCC(=O)O)C(C)C [compound 663]
HLA-B*4001; [7]
  IC50: > 10 µM

## CSCC[C@H](NC(=O)[C@H](CCCNC(=N)N)NC(=O)[C@@H]1CCCN1C(=O)CNC(=O)[C@H](CCC(=O)O)NC(=O)[C@H](CCC(=O)O)NC(=O)[C@H](CCC(=O)O)NC(=O)[C@@H](N)CCC(N)=O)C(=O)N[C@@H](Cc1ccccc1)C(=O)O [compound 688]
HLA-B*4001; MAGE2-derived B44 peptides, Table 29
  IC50: 0.626 µM

## CC[C@H](C)[C@H](N)C(=O)N[C@@H](CCC(=O)O)C(=O)NCC(=O)N[C@@H](CC(=O)O)C(=O)N[C@@H](CS)C(=O)N[C@@H](C)C(=O)N1CCC[C@H]1C(=O)N[C@@H](CCC(=O)O)C(=O)N[C@@H](CCC(=O)O)C(=O)N[C@@H](CCCCN)C(=O)N[C@H](C(=O)O)[C@@H](C)CC [compound 700]
HLA-B*4001; [7]
  IC50: > 10 µM
HLA-B*4002; [7]
  IC50: > 10 µM

## CC[C@H](C)[C@H](NC(=O)[C@H](CCCCN)NC(=O)[C@H](CCC(=O)O)NC(=O)[C@@H](N)CCC(=O)O)C(=O)N[C@@H](Cc1c[nH]c2ccccc12)C(=O)N[C@@H](CCC(=O)O)C(=O)N[C@@H](CCC(=O)O)C(=O)N[C@@H](CC(C)C)C(=O)N[C@@H](CO)C(=O)N[C@@H](CCSC)C(=O)N[C@@H](CC(C)C)C(=O)O [compound 702]
HLA-B*4002; [7]
  IC50: > 10 µM

## CC(C)[C@H](NC(=O)[C@H](CO)NC(=O)[C@H](CC(=O)O)NC(=O)[C@H](CCC(=O)O)NC(=O)[C@H](CCCNC(=N)N)NC(=O)CNC(=O)[C@H](CCC(=O)O)NC(=O)[C@@H](N)Cc1ccccc1)C(=O)N[C@@H](Cc1ccccc1)C(=O)N[C@@H](C)C(=O)O [compound 704]
HLA-B*4001; [7]
  IC50: > 10 µM

## C[C@H](NC(=O)[C@@H](NC(=O)[C@H](CCC(N)=O)NC(=O)[C@H](CCC(N)=O)NC(=O)[C@H](CCC(=O)O)NC(=O)[C@@H](N)CCC(=O)O)[C@@H](C)O)C(=O)N[C@@H](CO)C(=O)N[C@@H](CO)C(=O)N[C@@H](CO)C(=O)N[C@@H](CO)C(=O)N[C@H](C(=O)O)[C@@H](C)O [compound 706]
HLA-B*4002; [7]
  IC50: > 10 µM

## CSCC[C@H](NC(=O)[C@H](CCCNC(=N)N)NC(=O)[C@@H]1CCCN1C(=O)CNC(=O)[C@H](CCC(=O)O)NC(=O)[C@H](CCC(=O)O)NC(=O)[C@@H](N)CCC(=O)O)C(=O)N[C@@H](Cc1ccccc1)C(=O)O [compound 708]
HLA-B*4002; [7]
  IC50: > 10 µM

## p53.273: p53-derived A3 supertype wildtype 8-mer (Table 16d) (RVCACPGR)
[2]
  number of A3 supertype alleles bound: 4

Like-named read-outs stand apart in the source and are kept apart here.
